One experiment addresses T1, human GLP-1 receptor (Homo sapiens, UniProt P43220).
T1 construct: Using a portion corresponding to the ORF (open reading frame) of cDNA; host or cells: CHO DG44
Kind of experiment: cAMP response in CHO cells expressing human GLP-1 receptor (CHO/GLP-1R). The format is cell-based. The protocol: The PCR product was cloned into the known animal cell expression vector x0GC/dhfr, thereby constructing the recombinant vector x0GC/GLP-1R.
The recombinant vector x0GC/GLP-1R was introduced into a CHO DG44 cell line, cultured in DMEM/F12 (10% FBS) medium, using lipofectamine (Invitrogene, USA), to obtain a transformant. The transformant was incubated in a selective medium containing 1 mg/mL G418 and 10 nM methotraxate, and monoclonal cell lines were selected therefrom.
(§1) The cultured cells were washed with KRB buffer, suspended in 40 ml of 1 mM IBMX-containing KRB buffer, and then allowed to stand at room temperature for 5 minutes. […] Then, 20 ml of cell lysis buffer was added to lyse the cells, and the concentration of cAMP in each of the cell lysates was measured using a cAMP assay kit (Molecular Device, USA).

Protein sequences, listed by entry. Tags and fused reporters are not part of them. Residues count along the entry.
UniProt P43220, 24-463: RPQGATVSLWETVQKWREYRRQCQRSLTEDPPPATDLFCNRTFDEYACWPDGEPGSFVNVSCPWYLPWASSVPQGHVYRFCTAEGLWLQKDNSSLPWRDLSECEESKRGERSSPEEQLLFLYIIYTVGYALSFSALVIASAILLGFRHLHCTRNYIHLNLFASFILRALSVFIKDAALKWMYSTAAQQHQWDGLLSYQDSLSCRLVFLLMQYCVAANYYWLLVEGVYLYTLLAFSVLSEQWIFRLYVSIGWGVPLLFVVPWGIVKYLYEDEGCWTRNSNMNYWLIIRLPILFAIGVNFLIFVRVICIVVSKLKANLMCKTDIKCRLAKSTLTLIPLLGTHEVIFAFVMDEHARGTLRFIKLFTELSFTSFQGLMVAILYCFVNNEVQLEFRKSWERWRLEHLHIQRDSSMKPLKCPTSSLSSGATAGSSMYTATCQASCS
UniProt P47871, 26-477: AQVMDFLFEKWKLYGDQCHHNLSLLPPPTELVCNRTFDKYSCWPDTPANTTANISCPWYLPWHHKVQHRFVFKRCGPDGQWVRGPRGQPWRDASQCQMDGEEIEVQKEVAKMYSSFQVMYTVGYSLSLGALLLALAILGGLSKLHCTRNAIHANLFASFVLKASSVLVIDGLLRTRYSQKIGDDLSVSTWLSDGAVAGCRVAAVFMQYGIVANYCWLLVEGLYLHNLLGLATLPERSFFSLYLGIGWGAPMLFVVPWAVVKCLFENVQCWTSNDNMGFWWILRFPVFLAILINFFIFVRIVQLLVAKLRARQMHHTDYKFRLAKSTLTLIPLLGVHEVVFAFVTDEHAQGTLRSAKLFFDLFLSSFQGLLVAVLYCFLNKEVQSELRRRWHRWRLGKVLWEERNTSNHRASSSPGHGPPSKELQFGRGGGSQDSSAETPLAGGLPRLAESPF

The target in a further experiment is T2, human glucagon receptor (Homo sapiens, UniProt P47871).
T2 construct: Using a portion corresponding to the ORF (open reading frame) of cDNA; host or cells: CHO DG44
Briefly: cAMP response in CHO cells expressing human glucagon receptor (CHO/GCGR). It is filed as cell-based. The protocol: The PCR product was cloned into the known animal cell expression vector x0GC/dhfr, thereby constructing the recombinant vector x0GC/GCGR.
The recombinant vector x0GC/GCGR was introduced into a CHO DG44 cell line, cultured in DMEM/F12 (10% FBS) medium, using lipofectamine (Invitrogene, USA), to obtain a transformant. The transformant was incubated in a selective medium containing 1 mg/mL G418 and 10 nM methotraxate, and monoclonal cell lines were selected therefrom.
as §1

A word on the EC50: it is the concentration that produces a half-maximal response. A low value points to a more potent agent.

`CSCC[C@H](NC(=O)[C@H](CCC(N)=O)NC(=O)[C@H](CCCCN)NC(=O)[C@H](CO)NC(=O)[C@H](CC(C)C)NC(=O)[C@H](CC(=O)O)NC(=O)[C@H](CO)NC(=O)[C@@H](NC(=O)[C@H](Cc1ccccc1)NC(=O)[C@@H](NC(=O)CNC(=O)[C@H](CCC(=O)O)NC(=O)CNC(=O)[C@H](Cc1c[nH]cn1)NC(=O)CNC(=O)CNC(=O)CNC(=O)[C@H](CC(=O)O)NC(=O)[C@H](CC(C)C)NC(=O)[C@H](Cc1ccc(O)cc1)NC(=O)[C@H](CCCNC(=N)N)NC(=O)[C@H](CO)NC(=O)[C@H](Cc1ccc(O)cc1)NC(=O)[C@H](CC(=O)O)NC(=O)[C@H](CO)NC(=O)[C@@H](NC(=O)[C@H](Cc1ccccc1)NC(=O)[C@@H](NC(=O)CNC(=O)[C@H](CCC(N)=O)NC(=O)[C@H](CO)NC(=O)Cc1c[nH]cn1)[C@@H](C)O)[C@@H](C)O)[C@@H](C)O)[C@@H](C)O)C(=O)N[C@@H](CCC(=O)O)C(=O)N[C@@H](CCC(=O)O)C(=O)N[C@@H](CCC(=O)O)C(=O)N[C@@H](C)C(=O)N[C@H](C(=O)N[C@@H](CCCCN)C(=O)O)C(C)C` [SEQ ID NO: 12]: the 50% effective concentration (EC50) at human GLP-1 receptor and at human glucagon receptor was more than 1000 nM throughout.

Consider `CC[C@H](C)[C@H](NC(=O)[C@H](Cc1ccccc1)NC(=O)[C@H](CC(C)C)NC(=O)C(C)(CCC(=O)O)NC(=O)[C@@H](NC(=O)[C@H](C)NC(=O)[C@H](CCC(=O)O)NC(=O)C(C)(CCC(=O)O)NC(=O)[C@H](CC(=O)O)NC(=O)[C@H](CC(C)C)NC(=O)[C@H](Cc1ccc(O)cc1)NC(=O)[C@H](CCCNC(=N)N)NC(=O)[C@H](CO)NC(=O)[C@H](Cc1ccc(O)cc1)NC(=O)[C@H](CC(=O)O)NC(=O)[C@H](CO)NC(=O)[C@@H](NC(=O)[C@H](Cc1ccccc1)NC(=O)[C@@H](NC(=O)CNC(=O)[C@H](CCC(N)=O)NC(=O)[C@H](CO)NC(=O)Cc1c[nH]cn1)[C@@H](C)O)[C@@H](C)O)C(C)C)C(=O)N[C@@H](CCC(=O)O)C(=O)N[C@@H](Cc1c[nH]c2ccccc12)C(=O)N[C@@H](CC(C)C)C(=O)N[C@@H](CCSC)C(=O)N[C@@H](CC(N)=O)C(=O)N[C@H](C(=O)N[C@@H](CCCCN)C(=O)O)[C@@H](C)O` (stereo partly shown) [SEQ ID NO: 13, CA-SQGTFTSDYSRYLDXEAVXLFIEWLMNTK], for which the EC50 at human GLP-1 receptor and at human glucagon receptor was more than 1000 nM each time.

The values are drawn from patent US10550168B2, “Composition for treating diabetes or diabesity comprising oxyntomodulin analog” (HANMI PHARM. CO., LTD., priority 2012, dated 2020).
